Measured values taken from patent US9981059B2, “Sugar chain-polypeptide complex” (Glytech, Inc., priority 2013, dated 2018).
Entries after “also recorded” stand apart in the source; their conditions may differ.

Key:
Type in all cases: physicochemical
[1] = Steel ball loading test of hydrogel property; design: key to position of the steel ball / hydrogel state: The state of the steel ball staying near the hydrogel surface was set as ◯; sinking after loading and staying internally was set as Δ; sinking to the bottom of the Durham's tube was set as X; * was added to those where the hydrogel was not uniform and clouding or insoluble matter (precipitate) was observed
Procedure: Ten mg of the sugar chain-polypeptide complex or 10 mg of the control polypeptide were dissolved in 500 μL of ultrapure water to prepare 2 wt. % polypeptide solutions. […] In doing so, citrate-phosphate buffer (pH 2.0 and 3.5), phosphate buffer (pH 7.4), and phosphate-sodium hydroxide buffer (pH 11.5) were employed as the buffer. The surface of the hydrogel inside the Durham's tube was horizontally placed, left still for 20 minutes under room temperature conditions, and a steel ball (diameter 1.56 mm, weight 16 mg, FUNABE SEIKO Co., Ltd.) was loaded on the hydrogel. After 10 minutes, the position of the steel ball was observed by visual confirmation.
The position of the steel ball inside the Durham's tube was evaluated in 3 grades. The state of the steel ball staying near the hydrogel surface was set as ◯, sinking after loading and staying internally was set as Δ, and sinking to the bottom of the Durham's tube was set as X. In addition, * was added to those where the hydrogel was not uniform and clouding or insoluble matter (precipitate) was observed. A hydrogel where the steel ball stays around the surface (◯) and no clouding or insoluble matter is seen (no *) was thought to be a gel that is transparent and uniform.

[2] = Circular dichroism (CD) measurement of β sheet structure
Procedure: In general, the characteristics of the wavelengths observed when a substance has a β sheet structure are a positive absorption at around 197 nm and a negative absorption at around 216 nm. For this reason, focus was placed on the size of these wavelengths in the present invention, and the influence of pH on the β sheet structure was investigated.
C(DiGlcNAc)-(RADA)4 which is one embodiment of the present invention or (RADA)4 as the control were dissolved in ultrapure water. One to ten millimolars of aqueous sodium hydroxide solutions were added to each of these aqueous polypeptide solutions to adjust the pH, and 100 mM aqueous polypeptide solutions at having pH 2 or pH 7 were created. These aqueous solutions were transferred to quartz cells having an optical path length of 0.1 cm. The CD spectrum was then measured with a spectrum polarimeter (J-805, Jasco) at wavelengths of 185-260 nm for ellipticity (millidegree). The mean residue ellipticity θ was calculated with the following formula: [θ]=(θobs/10·l·c)/r
wherein θobs represents the ellipticity measured in millidegree, l represents the cell length (cm), c represents the concentration (M), and r represents the number of amino acid residues.

[3] = Kinetic viscosity measurement with rheometer; settings: 0.5 wt. % hydrogel, pH 7, 25 degrees
Procedure: A rheometer (MCR302, Anton Paar GmbH) equipped with a stainless steel parallel plate having a diameter of 25 mm with 0.3 mm gap height was employed for kinetic viscosity measurement. C(DiGlcNAc)-(RADA)4 which is one embodiment of the present invention or (RADA)4 as the control were dissolved in ultrapure water. Five millimolars of aqueous sodium hydroxide solution was added to these aqueous polypeptide solutions in order to adjust the pH to prepare 0.5 wt. % hydrogels at pH 7. Subsequently, these hydrogels were quickly transferred to a rheometer set at 25 degrees, and phase angle (tan δ) was monitored over a time course. (frequency=1 Hz, distortion=10%)

[4] = Steel ball loading test of hydrogels comprising rat blood plasma (utility as hemostatic matrix); design: key to position of the steel ball / hydrogel state: The state of the steel ball staying near the hydrogel surface was set as ◯; sinking after loading and staying internally was set as Δ; sinking to the bottom of the Durham's tube was set as X; * was added to those where the hydrogel was not uniform and clouding or insoluble matter (precipitate) was observed; settings: polypeptide 0.5 wt. %
Procedure: Aqueous polypeptide solutions were prepared with a method similar to Example 1. Blood was collected from 7 weeks-old Crlj:WI rats with heparin sodium injection (Ajinomoto), and blood plasma was obtained from the supernatant after centrifugation treatment. The aqueous polypeptide solution, blood plasma, and PBS were added to a Durham's tube, and hydrogels was prepared so that the plasma concentration was 5-50% and the polypeptide concentration was 0.5 wt. %. Subsequently, these were left for 20 minutes at room temperature condition, and then steel ball loading tests were carried out with a method similar to Example 1.

[5] = hydrogel concentration 0.5 wt. %, pH 3.5
[6] = hydrogel concentration 0.5 wt. %, pH 7.4
[7] = peptide concentration 1 wt. %, pH 3.5
[8] = peptide concentration 1 wt. %, pH 7.4

Substance	hydrogel formed (in words) ([1]; 0.5 wt. %, pH 3.5 and pH 7.4)	position of the steel ball / hydrogel state [1, 5]	position of the steel ball / hydrogel state [1, 6]	position of the steel ball / hydrogel state [1, 7]	position of the steel ball / hydrogel state [1, 8]	also measured
(RADA)4-C(DiGlcNAc) [Compound 13]	transparent and uniform hydrogels	◯	◯			
N(DiGlcNAc)-(RADA)4 [Compound 19]				◯	◯	hydrogel formed (in words) ([1]; 1 wt. %, pH 3.5 and pH 7.4): transparent and uniform hydrogels
C(Disialo)-(RADA)5 [Compound 5]				◯	◯	
C(DiGlcNAc)-(RATARAEA)2 [Compound 17]	transparent and uniform hydrogels; also recorded: transparent and uniform gel	◯	◯			
N(Asialo)-(RADA)4 [Compound 18]				◯	◯	hydrogel formed (in words) ([1]; 1 wt. %, pH 3.5 and pH 7.4): transparent and uniform hydrogels
C(Asialo)-(RADA)5 [Compound 6]				◯	◯	
C(Asialo)-(RADA)4 [Compound 4]				◯	◯	
C(DiGlcNAc)-(RADA)4 [Compound 2]	transparent and uniform hydrogels	◯	◯	◯	◯	β sheet structure formation ([2]; neutral pH): forms a β sheet structure; molar ellipticity (CD) ([2]; pH 2, 100 mM aqueous polypeptide solution): high molar ellipticity; molar ellipticity (CD) ([2]; pH 7, 100 mM aqueous polypeptide solution): high molar ellipticity; hydrogel formed (in words) ([1]; 1 wt. %, all pH ranges (pH 2.0-pH 11.5)): transparent and uniform hydrogels; hydrogel formed (in words) ([1]; 1 wt. %, pH 3.5 and pH 7.4): transparent and uniform hydrogels; position of the steel ball / hydrogel state ([1]; hydrogel concentration 0.25 wt. %, pH 3.5): X; position of the steel ball / hydrogel state ([1]; hydrogel concentration 0.25 wt. %, pH 7.4): ◯; hydrogel formed (in words) ([1]; hydrogel concentration lowered to 0.25 wt. %): formed a uniform hydrogel only at pH 7.4; position of the steel ball / hydrogel state ([1]; peptide concentration 1 wt. %, pH 2.0): ◯; position of the steel ball / hydrogel state ([1]; peptide concentration 1 wt. %, pH 11.5): ◯; rigidity of hydrogel formed [3]: rigid hydrogel; phase angle (tan δ) over a time course ([3]; frequency 1 Hz, distortion 10%): decreased rapidly; position of the steel ball / hydrogel state ([4]; plasma concentration 5%): ◯; hydrogel formed in presence of blood plasma (in words) ([4]; plasma concentration 5-50%): formed uniform hydrogels regardless of the plasma concentration; position of the steel ball / hydrogel state ([4]; plasma concentration 10%): ◯; position of the steel ball / hydrogel state ([4]; plasma concentration 25%): ◯; position of the steel ball / hydrogel state ([4]; plasma concentration 50%): ◯
C(PEG2000)-(RADA)5 [Compound 15, reference compound]	uniform hydrogels were not formed	X	X			
C(Disialo)-(RADA)4 [Compound 3]				◯	◯	
C(DiGlcNAc)-(RADA)5 [Compound 7]				◯	◯	
C(Asialo)-(RATARAEA)2						hydrogel formed (in words) ([1]; Example 4, 0.5 wt. %, pH 7.4): transparent and uniform hydrogel
